# US10011573B2, “Human androgen receptor DNA-binding domain (DBD) compounds as therapeutics and methods for their use” (The University of British Columbia, priority 2014, dated 2018)
# Sequences of proteins named here, by UniProt entry; tags and fusion partners are left off.
# UniProt P10275, whole entry T878A: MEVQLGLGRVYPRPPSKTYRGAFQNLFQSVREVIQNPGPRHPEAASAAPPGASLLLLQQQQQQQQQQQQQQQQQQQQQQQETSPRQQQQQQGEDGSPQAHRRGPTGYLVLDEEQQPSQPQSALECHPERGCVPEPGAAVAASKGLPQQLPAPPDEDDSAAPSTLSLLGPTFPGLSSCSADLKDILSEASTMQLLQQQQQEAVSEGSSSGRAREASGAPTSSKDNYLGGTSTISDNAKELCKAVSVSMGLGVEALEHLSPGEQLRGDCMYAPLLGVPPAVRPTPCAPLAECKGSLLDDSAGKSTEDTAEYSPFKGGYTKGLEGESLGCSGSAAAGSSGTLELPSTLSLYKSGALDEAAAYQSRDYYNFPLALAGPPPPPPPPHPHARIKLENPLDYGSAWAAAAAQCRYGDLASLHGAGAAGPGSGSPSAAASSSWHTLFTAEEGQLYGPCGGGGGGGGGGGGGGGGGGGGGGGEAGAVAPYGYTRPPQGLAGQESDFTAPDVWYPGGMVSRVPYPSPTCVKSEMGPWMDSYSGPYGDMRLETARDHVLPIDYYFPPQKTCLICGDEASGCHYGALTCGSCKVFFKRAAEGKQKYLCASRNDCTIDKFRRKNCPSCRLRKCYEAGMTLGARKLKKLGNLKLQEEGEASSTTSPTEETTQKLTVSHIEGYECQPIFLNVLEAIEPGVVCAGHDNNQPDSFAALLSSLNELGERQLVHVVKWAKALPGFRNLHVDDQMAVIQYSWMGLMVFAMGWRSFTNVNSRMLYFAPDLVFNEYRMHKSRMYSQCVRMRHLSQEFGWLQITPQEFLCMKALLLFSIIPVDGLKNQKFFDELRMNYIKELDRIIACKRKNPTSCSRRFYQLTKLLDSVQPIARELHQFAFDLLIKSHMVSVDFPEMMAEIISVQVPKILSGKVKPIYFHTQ
# What was measured:
# [1] = target: androgen receptor (AR) (Homo sapiens, UniProt P10275, T878A); assay: eGFP cellular AR transcription assay (LNCaP eGFP cells, LN-ARR2PB-eGFP); settings: for IC50: read-out: eGFP IC50
# [2] = test system: PSA; assay: Prostate-specific antigen (PSA) assay, secreted PSA from the eGFP assay plates; settings: read-out: PSA IC50; Series 1
# [3] = target: AR binding to PSA and FKBP5 enhancer (Homo sapiens, UniProt P10275, T878A); assay: Chromatin immunoprecipitation (ChIP) in LNCaP cells; type: cell-based
Structure (SMILES),IC50 [1],IC50 [2],% Inhibition (3 μM) [1],AR pulldown of the PSA and FKBP5 enhancer [3]
Cn1ccn(-c2ccc(N3CCOCC3)s2)c1=O,6.3 µM,,,
Brc1ncn(-c2nccc(N3CCOCC3)n2)c1Br,1.5 µM,0.88 µM,,
c1cc2ncn(-c3csc(N4CCOCC4)n3)c2cn1,2.8 µM,,,
c1ccc(-c2cc(N3CCOCC3)cs2)cc1,,0.837 µM,110.53%,
O=C(Nc1ncc(-c2ccccc2)s1)C1CSCCS1 (stereo not shown),15.5 µM,,,reduced AR pulldown
CCC(C)C(=O)Nc1ncc(-c2ccccc2)s1 (stereo not shown),13.3 µM,,,
N#Cc1ccc(-c2ccc(N3CCOCC3)s2)s1,11.4 µM,,52.98%,
Brc1scc(-c2nccc(N3CCOCC3)n2)c1Br,8.65 µM,,,
Brc1ncn(-c2cnc(N3CCOCC3)[nH]2)c1Br,0.05 µM,,,
